Experiments:
mock transfected T cells = experiment: Innate killing by real-time cell analysis, mock transfected T cells; type: cell-based, human; details: in the presence of the antibody
Procedure: (§1) Briefly, T-cells were plated in CD19^+ tumor cell specific media. After cell index value reached 0.7, human NK cells or human macrophages were added with an E:T ratio of 1:1 with human IL-2 for NK cells and without IL-2 for macrophages. Some wells were pretreated with a human CD47 blocking antibody or a human EGFR antibody (e.g., cetuximab) and again during the course of the real-time analysis assay. Data were standardized and analyzed with the real-time cell analysis instrument software.
(§2) After about 48 hours, T-cells were collected and stained with components of a live/dead cell viability staining assay. Briefly, cells were stained with calcein AM and ethidium homodimer-1 according to the manufacturer's protocol. The analysis was performed by flow cytometry and the results were expressed as percentage of dead cells.

[1] = test system: control CAR-T cells expressing CAR-EGFRt constructs; experiment: Innate killing by real-time cell analysis, control CAR-EGFRt T cells; type: cell-based, human; details: with EGFR blocking antibody
Procedure: as §1, §2

Substance: cetuximab: human EGFR antibody (blocking antibody against EGFR) [reference compound]
- killing of mock transfected T cells by NK cell and macrophages (mock transfected T cells): not killed
- innate cell killing of control CAR-EGFRt T cells [1]: induced

— patent publication US20250320290A1, “METHODS FOR TRIGGERING SAFETY KILLING MECHANISMS USING A CD47-SIRPalpha BLOCKADE AGENT” (Sana Biotechnology, Inc., priority 2020, published 2025)
